Most compounds without a hit are left out; they make up all but 1.9% or so of the library.
ERp5 block: blocks human ERp5 reductase activity on insulin; inhibition, % at 9.99 µM; 0.05% of 350,000 active; Q15084; ERp5 insulin aggregation, absorbance 650 nm, 90 min;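 active = mean replicate inhibition above about 25%, with every replicate also reaching it, limit read from the data, passing the limit was not always enough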
Yeast UUG start: modulators of start codon recognition fidelity in yeast. activity score, % at 18.7 µM. S. cerevisiae UUG-firefly luciferase reporter, luminescence/redox ratio. 350,000 compounds, 0.13% hits;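 active means replicate mean at a twofold rise or more, about +100% in these data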;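 further: firefly luciferase made from a UUG start codon reports start codon fidelity; reporter light over untreated wells divided by growth signal over untreated wells; some hits fall short of that in this replicate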
FGF22 binding: shifts melting point of recombinant human FGF22. Q9HCT0. recombinant FGF22 thermal shift, SYPRO orange fluorescence; percent of sucrose octasulfate shift, DMSO zero. activity (Tm shift, normalised), % at 9.99 µM. 1.5% of 340,000 active. AID 651658;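 active = mean Tm shift, scaled 0 neutral to 100 positive control, at about 1.3% or above, every replicate too, limit read from the data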
PDI turbidity: blocks human protein disulfide isomerase activity; P07237; PDI insulin aggregation turbidity, A650, 90 min; inhibition, % at 10 µM; 0.052% of 350,000 active; AID 588391;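 active = mean inhibition across replicates of 30% or more, whatever share of single replicates reach that level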
PglD DTNB: blocks C. jejuni PglD acetyltransferase activity. purified PglD enzyme, DTNB colorimetric CoA detection. inhibition, % at 12.5 µM. 0.098% of 360,000 active; in the data active = inhibition above about 16%, passing the limit was not always enough
ARNT TACC3 PPI: disruptors of human ARNT/TACC3 interaction | AlphaScreen His-ARNT PAS-B/GST-TACC3 binding, luminescence; TACC3 fragment carries E629A point mutation | inhibition, % at 9.99 µM | 0.66% of 390,000 active;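 active = mean inhibition of replicates at least 50% and at least half of replicates each reaching 50%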;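 note: 0% = complete ARNT plus TACC3 wells and 100% = ARNT alone without TACC3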
* hit, by the source's call; nt = not tested or not shown.

Letters: A = ERp5 block; B = Yeast UUG start; C = FGF22 binding; D = PDI turbidity; E = PglD DTNB; F = ARNT TACC3 PPI
> COc1ccc(NC(=O)Nc2ccc3c(c2)C(=O)N([C@@H](C)CO)C[C@H](C)[C@@H](CN(C)C)OCCCC[C@@H](C)O3)cc1
  A: 1; B: 48; C: 0; D: nt; E: 0; F: 29
> CCC(C)(C)NC(=O)CN(C(=O)c1csnn1)c1ccccc1-c1ccccc1
  A: 3; B: nt; C: 43*; D: -5; E: nt; F: -7
> CC(C)(C)N1CC(C(=O)Nc2cccc(Cl)c2Cl)CC1=O (stereo not given)
  A: 1; B: -2; C: 0; D: -6; E: -6; F: 38
> CC(C)(C)N1CC(C(=O)O)CC1=O (stereo not given)
  A: -1; B: -23; C: 43*; D: -4; E: -4; F: -2
> CC(C)(C)NC(=O)c1nn(Cc2ccccc2)c(=O)c2ccccc12
  A: -4; B: -7; C: 43*; D: 1; E: -8; F: 2
> COc1cccc2cccc(/C=N/n3cnnc3)c12
  A: 1; B: nt; C: 43*; D: 9; E: nt; F: -2
> COc1ccccc1OCCOc1ccccc1/C=N/n1cnnc1
  A: nt; B: -10; C: nt; D: 3; E: 5; F: -2
> O=C(O)CCCNc1n[nH]c(=O)[nH]c1=O
  A: 3; B: nt; C: 43*; D: -5; E: nt; F: 0
> O=C(CCNc1n[nH]c(=O)[nH]c1=O)N1CCCCC1
  A: nt; B: -25; C: nt; D: -16; E: -3; F: -3
> COc1ccc(NC(=O)Nc2ccc3c(c2)C(=O)N([C@@H](C)CO)C[C@@H](C)[C@@H](CN(C)C(=O)Nc2ccc(OC)cc2)OCCCC[C@H](C)O3)cc1
  A: -5; B: -20; C: 0; D: nt; E: 6; F: nt
> CCC(CC)C(=O)c1c[nH]c(C(=O)NCc2ccncc2)c1
  A: 5; B: -14; C: 0; D: -7; E: -4; F: -2
> O=C(Cc1ccccc1)c1c[nH]c(C(=O)NCc2ccncc2)c1
  A: -3; B: nt; C: 43*; D: -2; E: nt; F: -3
> Cc1nnsc1SCCNC(=O)Nc1ccc(Cl)cc1
  A: -1; B: nt; C: 44*; D: -4; E: nt; F: -1
> O=C(NCCNC(=O)Nc1ccc(Cl)cc1)Nc1ccc(Cl)cc1
  A: 7; B: nt; C: 0; D: -17; E: nt; F: -5
> Cc1ccccc1-c1ccc([C@@H]2[C@@H](CO)N3CCCCN(C(=O)c4cccnc4)C[C@@H]23)cc1
  A: -4; B: -12; C: 0; D: nt; E: 6; F: -2
> CC(C)CC#Cc1ccc([C@H]2[C@@H](CO)N3C(=O)CN(C(=O)c4ccc5c(c4)OCO5)C[C@H]23)cc1
  A: -4; B: nt; C: nt; D: nt; E: nt; F: nt
> Cc1cc(C(=O)CN2C(=O)NC(CC(C)C)C2=O)c(C)n1-c1ccccc1F (stereo not given)
  A: -6; B: -22; C: 0; D: -6; E: -2; F: -6
> Cc1cc(C(=O)CN2C(=O)C(=O)N(CC(C)C)C2=O)c(C)n1-c1ccccc1F
  A: -1; B: nt; C: 43*; D: 14; E: nt; F: 4
> CCNC(=O)C[C@@H]1CC[C@H]2[C@@H](COc3ccc(NC(=O)C4CCCCC4)cc3C(=O)N2C)O1
  A: -2; B: -13; C: 0; D: nt; E: -1; F: -10
> Cc1cc(C)cc(C(=O)N2CCN=C2c2ccccc2)c1
  A: 2; B: nt; C: 43*; D: 2; E: nt; F: -5
> CC1CC(=O)C(C2c3ccccc3CCN2C(=O)CCl)C(=O)C1 (stereo not given)
  A: 1; B: nt; C: 44*; D: 13; E: nt; F: -11
> COc1cc2c(cc1OC)C(C1C(=O)CC(C)(C)CC1=O)N(C(=O)CCl)CC2 (stereo not given)
  A: 3; B: nt; C: 0; D: -2; E: nt; F: 5
> O=C(NC1CCCC1)N1CC2(C1)[C@H](c1ccccc1)[C@H](CO)N2CC1CCCC1
  A: 5; B: nt; C: nt; D: nt; E: nt; F: nt
> COc1ccc(NC(=O)N(C)C[C@@H]2Oc3ccc(NS(=O)(=O)c4ccc(F)cc4)cc3CC(=O)N([C@@H](C)CO)C[C@H]2C)cc1
  A: 2; B: nt; C: 0; D: nt; E: nt; F: nt
> CCC12CN3CC(CC)(CN(C1)C3c1ccc([N+](=O)[O-])o1)C2=O (stereo not given)
  A: 1; B: nt; C: 43*; D: 1; E: nt; F: -5
> CC12CN3CC(C)(CN(C1)C3c1ccc([N+](=O)[O-])o1)C2=O (stereo not given)
  A: -2; B: nt; C: 44*; D: -2; E: nt; F: nt
> CCS(=O)(=O)N1CCCCN2[C@@H](CO)[C@@H](c3ccc(-c4ccc(C(=O)N(C)C)cc4)cc3)[C@@H]2C1
  A: -2; B: 0; C: 0; D: nt; E: 2; F: -6
> CCOCCCNC(=O)/C(C#N)=C/c1cc(C)c(O)c(C)c1
  A: 1; B: nt; C: 43*; D: 11; E: nt; F: -1
> CCOCCCNC(=O)/C(C#N)=C/c1cc(OC)c(O)c([N+](=O)[O-])c1
  A: -3; B: nt; C: 1; D: 9; E: nt; F: 0
> COc1ccc2c3c(n(C)c2c1)[C@H](CO)N(C(=O)Cc1ccccn1)CC31CCN(CC2CCCCC2)CC1
  A: -2; B: nt; C: 0; D: nt; E: nt; F: nt

Grouped by structure, those above containing a furan ring, fused or not (2)
Letters: A = ERp5 block; B = Yeast UUG start; C = FGF22 binding; D = PDI turbidity; E = PglD DTNB; F = ARNT TACC3 PPI
> CCC12CN3CC(CC)(CN(C1)C3c1ccc([N+](=O)[O-])o1)C2=O (stereo not given)
  A: 1; B: nt; C: 43*; D: 1; E: nt; F: -5
> CC12CN3CC(C)(CN(C1)C3c1ccc([N+](=O)[O-])o1)C2=O (stereo not given)
  A: -2; B: nt; C: 44*; D: -2; E: nt; F: nt
